From patent US20220152228A1, “COMPOSITIONS AND METHODS FOR RADIOTHERAPY USING CHELATED RADIOTHERAPEUTIC AGENTS AND NON-TARGET TISSUE BLOCKADE” (Washington University, priority 2019, published 2022)

Test: 223Ra organ distribution in mice pre-treated with ion-channel modulator
Format: in vivo, C57/Bl6 mice
Protocol: Healthy male C57/Bl6 mice were randomized received a combination treatment with intraperitoneal injection of Amiloride (inhibitor, red) or NS-1619 (activator, green) or saline (control, grey) followed by a clinical dose of ^223RaCl2 1 h post-drug administration. Radioactive organ distribution was then measured at 15 min, 1 h and 4 h post ^223Ra treatment. […] Comparing bone uptake, as early as 15 min, osseous absorption is was half for the NS-1619-treated group as compared to the amiloride or the control group.
Male C57Bl/6 aged 10 weeks (n=6 per treated group) were administered intraperitoneally Amiloride (12.5 mg/kg-150 uL 2% v/v DMSO) or NS-1619 (1 mg/kg-150 uL 2% v/v DMSO) or saline 1 h prior ^223RaCl2 i.v. administration (3.7 KBq/100 uL buffer). Animals were kept awake between each injection. 15 min; 1 h and 4 h post ^223Ra administration: blood; spleen; kidney; stomach; duodenum; jejunum; ileum; cecum; colon; muscle; fat and bone tibia were harvested, weighed and gamma counted. Gamma counting was conducting utilizing a Perkin Elmer Wizard2 counter with readings of energies set 150-350 KeV, with 10 min reading for each sample. Standard corresponding to 10% of injected activity were measured as well; allowing for the calculation of % Injected activity (% IA) normalized to tissue weight (% IA/g).

Structure (SMILES): O=c1[nH]c2cc(C(F)(F)F)ccc2n1-c1cc(C(F)(F)F)ccc1O [NS-1619]
- osseous absorption of 223Ra relative to amiloride or control group (15 min post 223RaCl2, modulator i.p. 1 h before): half

Structure (SMILES): N=C(N)NC(=O)c1nc(Cl)c(N)nc1N [Amiloride]
- kidney uptake (% IA) of 223Ra (4 h p.i.): delayed excretion
